# Source: PubChem BioAssay AID630 (Emory University Molecular Libraries Screening Center, 2007)
# Sequences of proteins named here, by UniProt entry; tags and fusion partners are left off.
# UniProt P84022, whole entry: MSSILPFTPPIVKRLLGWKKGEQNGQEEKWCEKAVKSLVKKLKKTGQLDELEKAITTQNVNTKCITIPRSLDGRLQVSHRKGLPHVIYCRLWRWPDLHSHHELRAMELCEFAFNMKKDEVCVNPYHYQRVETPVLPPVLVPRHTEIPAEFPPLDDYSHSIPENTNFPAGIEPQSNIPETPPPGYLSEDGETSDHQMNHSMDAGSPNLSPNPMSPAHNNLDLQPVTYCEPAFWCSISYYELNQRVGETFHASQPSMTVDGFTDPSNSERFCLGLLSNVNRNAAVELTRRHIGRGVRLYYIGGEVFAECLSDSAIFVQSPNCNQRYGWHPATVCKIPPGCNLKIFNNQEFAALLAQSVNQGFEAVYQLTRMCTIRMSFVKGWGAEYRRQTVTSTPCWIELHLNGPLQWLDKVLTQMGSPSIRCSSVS
# The list shows a part of the results, in another mix than the full data. Calls of active or inactive are those of the source.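 The calls were made as follows: active = compounds that reduce the energy-transfer binding signal between the protein and its labelled peptide by more than half; inactive = the rest.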
# Biological target: Mothers against decapentaplegic homolog 3 (Homo sapiens) (UniProt P84022)
# Assay: Smad3/FoxH1 peptide binding inhibitors, primary screen, biochemical, TR-FRET (AID 630);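 also: 0% = Smad3 plus labelled peptide maximal FRET and 100% = peptide-only background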
# Conditions: TR-FRET Smad3/Dy647-FoxH1 peptide binding, europium anti-His; at 25 µM; hits give high values
row,SMILES,inhibition
1,Cc1cc(C)cc(OP(C)(=O)Nc2ccccn2)c1 (stereo unspecified),inactive: 7.03%
2,Cc1ccc(C)c(NP(C)(=O)Oc2ccccc2)c1 (stereo unspecified),inactive: 4.47%
3,Cc1cc(C)cc(OP(C)(=O)Nc2ccc(C)cc2C)c1 (stereo unspecified),inactive: -0.19%
4,COc1ccccc1OP(C)(=O)Nc1c(C)cccc1C (stereo unspecified),inactive: 8.87%
5,Cc1nc2ccc3ccccc3c2s1.O=[N+]([O-])c1cc([N+](=O)[O-])c(O)c([N+](=O)[O-])c1,inactive: 19.4%
6,CP(=O)(Nc1ccccn1)Oc1ccc(Cl)cc1 (stereo unspecified),inactive: 2.03%
7,CCOP(C)(=S)SCC(=O)NC(C)C(=O)O (stereo unspecified),inactive: 0.66%
8,CP(=O)(NC(=O)Nc1ccccc1)Oc1ccccc1 (stereo unspecified),inactive: -15.5%
9,CP(=S)(Nn1cnnc1)Oc1ccccc1 (stereo unspecified),inactive: -4.74%
10,N1=C(c2nnc(-c3nn[nH]n3)nn2)NNN1,inactive: 1.1%
11,COc1ccc(OP(C)(=O)Nc2cccc(F)c2)cc1 (stereo unspecified),inactive: 5.51%
12,COc1ccccc1OP(C)(=O)Nc1ccc(C)cc1 (stereo unspecified),inactive: 1.8%
13,Cc1ccc(NP(C)(=O)Oc2ccccc2)c(C)c1 (stereo unspecified),inactive: 3.65%
14,CCc1ccc(OP(C)(=O)O)cc1,inactive: -8.82%
15,CP(=O)(Nc1ccccn1)Oc1ccccc1 (stereo unspecified),inactive: -5.97%
16,COc1ccccc1OP(C)(=O)Nc1ccc(C)cc1C (stereo unspecified),inactive: -4.26%
17,Cc1c(NP(C)(=O)Oc2ccc(C(C)C)cc2)c(=O)n(-c2ccccc2)n1C (stereo unspecified),inactive: -16.4%
18,CN(C)CCOC(=O)C(O)(c1ccccc1)C1CCCC1 (stereo unspecified),inactive: -4.02%

row,SMILES,inhibition
1,COc1ccc(OP(C)(=O)Nc2ccccn2)cc1 (stereo unspecified),inactive: -7.57%
2,[Au].[Au].c1ccc([PH+](c2ccccc2)c2ccccc2)cc1.c1ccc([PH+](c2ccccc2)c2ccccc2)cc1.n1n[n-]c(-c2nnn[n-]2)n1,active: 75.4%
3,Cc1nc2ccc3ccccc3c2o1.O=[N+]([O-])c1cc([N+](=O)[O-])c(O)c([N+](=O)[O-])c1,inactive: -3.55%
4,COc1ccccc1OP(C)(=O)Nc1ccc(C)c(C)c1 (stereo unspecified),inactive: 4.74%
5,CP(=O)(OC12CC3CC(CC(C3)C1)C2)OC12CC3CC(CC(C3)C1)C2,inactive: 10.3%
6,CP(=O)(Nc1ccc(Cl)cc1)Oc1ccc(F)cc1 (stereo unspecified),inactive: -10.2%
7,CC(C)(C)c1ccc(OP(C)(=O)O)cc1,inactive: 18.5%
8,CP(=O)(Oc1ccccc1)N1CCOC1=O (stereo unspecified),inactive: 5.27%
9,COc1ccccc1OP(C)(=O)Nc1c(C)n(C)n(-c2ccccc2)c1=O (stereo unspecified),inactive: -3.48%
10,NNC(NN)NN.n1nc(-c2nn[nH]n2)n[nH]1,inactive: 4.42%
11,Cc1ccccc1NP(C)(=O)Nc1ccccc1C,inactive: 15.2%
12,CP(=O)(Nc1ccc2c(c1)OCCO2)Oc1ccccc1 (stereo unspecified),inactive: -17.1%
13,CCOP(C)(=S)SCC(=O)NC(C)(CC)C(=O)O (stereo unspecified),inactive: -3.12%
14,CN(C)CCOC(=O)C(O)(c1ccccc1)C1CCCCC1 (stereo unspecified),inactive: 1.4%
15,CP(=O)(Nc1ccccc1)Oc1ccc(F)cc1 (stereo unspecified),inactive: -3.74%
16,CCN(CC)CCCOC(=O)C(O)(c1ccccc1)C1CCCCC1 (stereo unspecified),inactive: -2.73%
17,CP(=O)(Nc1ccccc1F)Oc1ccccc1 (stereo unspecified),inactive: 14.2%
18,CN1CC[C@@H](OC(=O)[C@](O)(c2ccccc2)C2CCCC2)C1,inactive: 47.8%
